Data reported in paper PMC9457746, “Synthesis of Sulfonamides Incorporating Piperidinyl-Hydrazidoureido and Piperidinyl-Hydrazidothioureido Moieties and Their Carbonic Anhydrase I, II, IX and XII Inhibitory Activity” (Molecules, 2022).

Protein sequences, listed by entry. Tags and fused reporters are not part of them. Lines headed by an entry give the natural chain unless they say otherwise; changes in a name come on top.
UniProt P00915: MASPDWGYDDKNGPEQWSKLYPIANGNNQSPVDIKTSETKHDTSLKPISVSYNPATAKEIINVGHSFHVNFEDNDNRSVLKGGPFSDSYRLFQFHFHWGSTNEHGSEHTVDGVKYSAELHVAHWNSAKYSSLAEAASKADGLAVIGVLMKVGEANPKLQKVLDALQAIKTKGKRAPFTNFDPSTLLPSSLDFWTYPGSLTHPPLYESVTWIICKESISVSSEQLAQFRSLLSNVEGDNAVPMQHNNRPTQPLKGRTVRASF

Legend:
[1] = target: hCA I (Homo sapiens, UniProt P00915); test: stopped flow CO2 hydrase assay, hCA I inhibition; conditions: read-out: Ki (nM) hCAI; Table 2, thioureas 6a-y; recombinant enzyme, 15 min preincubation, mean of at least three determinations
[2] = target: hCA II (Homo sapiens, UniProt P00918); test: stopped flow CO2 hydrase assay, hCA II inhibition; conditions: read-out: Ki (nM) hCAII; Table 2, thioureas 6a-y; recombinant enzyme, 15 min preincubation, mean of at least three determinations

“4-(4-(4-(4-(Trifluoromethyl)phenyl)piperazine-1-carbonyl)piperidine-1-carbonyl)benzenesulfonamide [Compound 6c]” gave a Ki [1] of 52 nM and a Ki [2] of 3.2 nM.
